Measurements from patent publication US20160347810A1 (AFASCI, published 2016).

By UniProt entry, the sequences of proteins in these tests, tags left out. Residues count along the entry.
UniProt Q16602, 23-461, chain 1 of 2: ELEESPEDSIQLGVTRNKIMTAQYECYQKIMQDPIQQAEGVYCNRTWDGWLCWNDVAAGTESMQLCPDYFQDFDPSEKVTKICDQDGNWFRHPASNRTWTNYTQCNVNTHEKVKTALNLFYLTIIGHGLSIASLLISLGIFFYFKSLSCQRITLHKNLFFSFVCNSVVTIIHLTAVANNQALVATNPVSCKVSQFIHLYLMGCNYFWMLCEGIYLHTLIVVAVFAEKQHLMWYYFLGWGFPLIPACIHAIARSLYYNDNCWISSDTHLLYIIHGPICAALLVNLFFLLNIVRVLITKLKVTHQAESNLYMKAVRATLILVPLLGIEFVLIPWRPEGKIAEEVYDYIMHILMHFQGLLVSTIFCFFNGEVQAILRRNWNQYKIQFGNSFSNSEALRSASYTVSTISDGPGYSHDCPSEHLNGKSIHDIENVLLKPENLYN
human calcitonin CGRP1 (CGRP1) membrane, UniProt O60894, 27-148, chain 2 of 2: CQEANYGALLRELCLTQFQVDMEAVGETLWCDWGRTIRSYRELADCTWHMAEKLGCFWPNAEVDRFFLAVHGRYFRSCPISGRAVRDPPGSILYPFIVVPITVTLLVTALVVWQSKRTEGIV

Target: T1, human calcitonin CGRP1 (CGRP1) membrane (human, UniProt Q16602 23-461; O60894 27-148)
T1 construct: whole, on cells; Purchased membrane preparation (Perkin Elmer), homogenised in assay buffer; the receptor stood in membranes, not intact cells; also called CGRP receptors; CGRP receptor
Assay: displacement of 0.24 nM [125I]-CGRP from human CGRP1 receptor membranes, filtration; Ki by Cheng-Prusoff; mean ± SD
Protocol: CGRP1 membrane was homogenized in the assay buffer (50 mM Tris-HCl pH 7.4, 5 mM MgCl₂, 0.5% BSA, 0.05% Tween20). […] After 1 h of incubation, at room temperature, samples were filtered, using a Tomtec cell harvester, through glass fiber filters that had been presoaked in 0.05% polyethyleneimine and washed with the cold Tris buffer (50 mM Tris-HCl pH7.4). Filters were counted on a betaplate reader (Wallac).

B1: human CGRP 8-37 (peptide)
peptide: VTHRLAGLLSRSGGMVKSNFVPTNVGSKAF
modifications: C-terminal amide
notes: also called conventional CGRP 8-37
B1 showed a Ki of 59.8 nM.
